Assay results as given in PMC6899459 (Chemmedchem, 2019).

Chains of the proteins cited; added tags and fusions are not shown.
UniProt Q92847, whole entry: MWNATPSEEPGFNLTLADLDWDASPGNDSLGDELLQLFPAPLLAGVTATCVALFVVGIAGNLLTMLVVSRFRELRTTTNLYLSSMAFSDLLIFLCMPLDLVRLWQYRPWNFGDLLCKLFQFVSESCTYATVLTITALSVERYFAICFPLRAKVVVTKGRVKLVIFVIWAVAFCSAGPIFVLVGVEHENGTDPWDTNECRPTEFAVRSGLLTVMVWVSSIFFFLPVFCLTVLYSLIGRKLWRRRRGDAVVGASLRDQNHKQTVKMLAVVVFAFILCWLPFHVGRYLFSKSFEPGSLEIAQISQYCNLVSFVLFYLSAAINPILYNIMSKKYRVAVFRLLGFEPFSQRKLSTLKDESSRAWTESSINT

Target: ghrelin receptor (Homo sapiens, UniProt Q92847)
Assay: IP-One assay
Type: cell-based
Conditions: SEM

Row | SMILES | EC50
1 | CC(C)C[C@H](NC(=O)[C@H](CC(C)C)NC(=O)[C@@H](Cc1c[nH]c2ccccc12)NC(=O)[C@H](Cc1ccccc1)NC(=O)[C@@H](NC(=O)[C@@H](N)CCCCN)[C@H](c1ccccc1)c1c[nH]c2ccccc12)C(N)=O [Peptide 9, K‐Wrf‐FwLL‐NH2] | 479 nM
2 | CC(C)C[C@H](NC(=O)[C@H](CC(C)C)NC(=O)[C@@H](Cc1c[nH]c2ccccc12)NC(=O)[C@H](Cc1ccccc1)NC(=O)[C@@H](NC(=O)[C@@H](N)CCCCN)[C@@H](c1ccccc1)c1c[nH]c2ccccc12)C(N)=O [Peptide 10, K‐Wsf‐FwLL‐NH2] | 407 nM
